# Experimental data from ChEMBL document CHEMBL1130399, “Synthesis and pharmacological comparison of dimethylheptyl and pentyl analogs of anandamide” (J Med Chem, 1997).
# By UniProt entry, the sequences of proteins in these tests, tags left out. Where a name states a change or a piece, a line headed by the entry shows the natural chain unless it says otherwise.
# UniProt Q9QZN9: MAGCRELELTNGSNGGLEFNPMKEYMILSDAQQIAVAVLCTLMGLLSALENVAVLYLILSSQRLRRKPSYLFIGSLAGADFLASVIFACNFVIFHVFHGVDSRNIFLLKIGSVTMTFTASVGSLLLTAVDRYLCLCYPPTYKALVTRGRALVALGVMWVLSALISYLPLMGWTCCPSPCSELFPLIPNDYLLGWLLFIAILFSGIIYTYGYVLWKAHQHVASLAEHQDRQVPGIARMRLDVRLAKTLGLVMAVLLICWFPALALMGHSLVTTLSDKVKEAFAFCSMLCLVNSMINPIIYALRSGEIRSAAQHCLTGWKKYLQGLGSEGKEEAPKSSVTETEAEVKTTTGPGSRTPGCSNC
# UniProt P20272: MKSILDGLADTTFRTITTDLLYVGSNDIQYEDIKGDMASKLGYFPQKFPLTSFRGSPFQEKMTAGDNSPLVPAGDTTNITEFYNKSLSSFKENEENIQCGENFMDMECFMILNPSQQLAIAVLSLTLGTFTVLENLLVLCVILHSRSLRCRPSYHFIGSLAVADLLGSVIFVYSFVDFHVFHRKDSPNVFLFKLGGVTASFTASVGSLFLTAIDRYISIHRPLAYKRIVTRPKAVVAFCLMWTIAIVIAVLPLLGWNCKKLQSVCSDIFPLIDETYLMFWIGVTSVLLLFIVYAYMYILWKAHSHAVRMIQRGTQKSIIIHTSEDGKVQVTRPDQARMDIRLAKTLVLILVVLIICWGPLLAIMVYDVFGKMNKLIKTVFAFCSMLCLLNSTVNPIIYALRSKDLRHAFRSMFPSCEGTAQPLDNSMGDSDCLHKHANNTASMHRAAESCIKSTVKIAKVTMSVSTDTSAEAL
# Target: Cannabinoid receptor (Rattus norvegicus, UniProt Q9QZN9+P20272)
# Test: Binding affinity towards cannabinoid receptor using [3H]SR-141,716A as radioligand in rat brain membrane
# Format: cell membranes
smiles,measurement,value
CCCCC/C=C\C/C=C\C/C=C\C/C=C\CCCC(=O)NCCO [ANANDAMIDE],Ki,282 nM
